Measurements as given in patent US20250277012A1 (Protagonist Therapeutics, Inc., priority 2021, published 2025).
Read-outs that look alike come from different tables or passages of the source.

Experiments:
ferroportin [1] = target: T1, ferroportin (Homo sapiens, UniProt Q9NP59); test: FPN activity assay: ferroportin-GFP internalization/degradation in HEK293 cells; format: cell-based; parameters: expressed in transfected cells
T1 sequence (Q9NP59 1-571): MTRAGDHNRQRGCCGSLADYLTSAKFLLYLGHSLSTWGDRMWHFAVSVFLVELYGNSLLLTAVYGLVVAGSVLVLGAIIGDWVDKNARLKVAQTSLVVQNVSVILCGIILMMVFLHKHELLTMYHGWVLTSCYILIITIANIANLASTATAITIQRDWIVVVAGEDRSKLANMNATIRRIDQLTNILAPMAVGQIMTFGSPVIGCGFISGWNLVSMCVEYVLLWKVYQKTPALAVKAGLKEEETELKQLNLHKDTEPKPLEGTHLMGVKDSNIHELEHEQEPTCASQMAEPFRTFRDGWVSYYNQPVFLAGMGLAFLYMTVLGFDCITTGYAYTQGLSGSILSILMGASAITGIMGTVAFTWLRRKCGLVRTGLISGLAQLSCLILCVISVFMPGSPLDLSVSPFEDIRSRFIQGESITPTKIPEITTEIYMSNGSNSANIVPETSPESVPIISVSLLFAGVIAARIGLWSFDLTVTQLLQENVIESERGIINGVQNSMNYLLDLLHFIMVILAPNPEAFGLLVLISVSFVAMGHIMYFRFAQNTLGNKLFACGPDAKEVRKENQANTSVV

ferroportin [2] = target: T1, ferroportin; test: T47D cell-based ferroportin internalization assay in presence of mouse serum albumin (MSA); parameters: a human breast carcinoma adherent cell line which endogenously expresses ferroportin; host or cells: T47D; details: Table 6D; T47D internalization assay with MSA
Description: The potency of the peptides in causing ferroportin internalization was evaluated in a T47D cell-based assay. […] In this internalization assay, the potency of the test peptides was evaluated in presence of serum albumin which is the main protein component in the blood. T47D cells were maintained in RPMI media (containing required amount of fetal bovine serum) and regularly sub-cultured. In preparation for the assay, the cells were seeded in 96-well plates at a density of 80-100 k cells per well in 100 ul volume and allowed to rest overnight. […] Sigma, A3139). The test peptide dilution series were allowed to incubate at room temperature for 30 min. Then the media was aspirated from the 96-well cell plate and test peptide dilution series were added. […] The AF647-conjugated detection peptide was previously verified to bind to ferroportin and cause its internalization. The cells were washed again after a 2 hr incubation in preparation for flow cytometry analysis. The Median Fluorescence Intensity (MFI) of the AF647-positive population was measured (after removing dead cells and non-singlets from the analysis). The MFI values were used to generate a dose-response curve and obtain IC50 potencies for the test peptides.

[3] = Table 6D, at least 18 hours incubation, read-out: FPN IC50

Row | DC50 (ferroportin [1]; [3]) [nM] | IC50 (ferroportin [2]) [nM] | SMILES | DC50 (ferroportin [1]; read-out: FPN IC50, Table 6D, at least 18 hours incubation) [nM]
1 | 10 to 100 | 1 to 10 | CCCCCCCCCCCCCCCC(=O)N[C@@H](CN)C(=O)NCCOCCOCC(=O)NCCOCCOCC(=O)NCCCC[C@H](NC(=O)[C@@H]1C[C@@H]2CN1C(=O)[C@H](C(c1ccccc1)c1ccccc1)NC(=O)[C@H](Cc1cnc[nH]1)NC(=O)[C@@H]1C[C@@H](CN1C(=O)[C@H](CCC(=O)O)NC(=O)CC(C)C)SS2)C(=O)NCCCCc1ccccc1 [compound 127] | –
2 | 10 to 100 | 100 to 500 | CCCCCCCCCCCCCCCC(=O)NCCCCCC(=O)NCCCC[C@H](NC(=O)[C@H]1CSSC[C@H](NC(=O)[C@H](CCC(=O)O)NC(=O)CC(C)C)C(=O)N[C@@H](Cc2c[nH]cn2)C(=O)N[C@@H](C(c2ccccc2)c2ccccc2)C(=O)N1)C(=O)N[C@H](C(N)=O)C(c1ccccc1)c1ccccc1 [compound 128] | –
3 | – | > 500 | CCCCCCCCCCCCCCCC(=O)NCCCCCC(=O)NCCCC[C@H](NC(=O)[C@@H]1CSSC[C@H](NC(=O)[C@H](CCC(=O)O)NC(=O)CC(C)C)C(=O)N[C@@H](Cc2c[nH]cn2)C(=O)N[C@@H](C(c2ccccc2)c2ccccc2)C(=O)N1)C(=O)N[C@H](C(N)=O)C(c1ccccc1)c1ccccc1 [compound 129] | –

Continued, compound first:

Row | SMILES | DC50 (ferroportin [1]; [3]) [nM] | IC50 (ferroportin [2]) [nM] | DC50 (ferroportin [1]; read-out: FPN IC50, Table 6D, at least 18 hours incubation) [nM]
4 | CCCCCCCCCCCCCCCC(=O)NCC[N+](C)(C)CC(=O)NCCOCCOCC(=O)NCCOCCOCC(=O)NCCCC[C@H](NC(=O)[C@@H]1CSSC[C@H](NC(=O)[C@H](CCC(=O)O)NC(=O)CC(C)C)C(=O)N[C@@H](Cc2c[nH]cn2)C(=O)N[C@@H](C(c2ccccc2)c2ccccc2)C(=O)N1)C(=O)NCC(c1ccccc1)c1ccccc1 [compound 121] | – | – | 10 to 100
5 | CCCCCCCCCCCCCCCC(=O)NCC[N+](C)(C)CC(=O)NCCCCCC(=O)NCCCC[C@H](NC(=O)[C@@H]1C[C@H]2CN1C(=O)[C@H](C(c1ccccc1)c1ccccc1)NC(=O)[C@H](Cc1c[nH]cn1)NC(=O)[C@@H](NC(=O)[C@H](CCC(=O)O)NC(=O)CC(C)C)CSS2)C(=O)NCCCCc1ccccc1 [compound 125] | 10 to 100 | – | –
6 | CCCCCCCCCCCCCCCC(=O)NCC[N+](C)(C)CC(=O)NCCOCCOCC(=O)NCCOCCOCC(=O)NCCCC[C@H](NC(=O)[C@@H]1CSSC[C@H](NC(=O)[C@H](CCC(=O)O)NC(=O)CC(C)C)C(=O)N[C@@H](Cc2cnc[nH]2)C(=O)N[C@@H](C(c2ccccc2)c2ccccc2)C(=O)N1)C(=O)NCCCCc1ccccc1 [compound 122] | 1 to 10 | – | –
